According to patent US6875761B2 (Eisai Co., Ltd., priority 1997, dated 2005):
Counter-ions that a name gives are not always drawn. Like-named read-outs stand apart in the source and are kept apart here.

By UniProt entry, the sequences of proteins in these tests, tags left out.
UniProt P19327, whole entry: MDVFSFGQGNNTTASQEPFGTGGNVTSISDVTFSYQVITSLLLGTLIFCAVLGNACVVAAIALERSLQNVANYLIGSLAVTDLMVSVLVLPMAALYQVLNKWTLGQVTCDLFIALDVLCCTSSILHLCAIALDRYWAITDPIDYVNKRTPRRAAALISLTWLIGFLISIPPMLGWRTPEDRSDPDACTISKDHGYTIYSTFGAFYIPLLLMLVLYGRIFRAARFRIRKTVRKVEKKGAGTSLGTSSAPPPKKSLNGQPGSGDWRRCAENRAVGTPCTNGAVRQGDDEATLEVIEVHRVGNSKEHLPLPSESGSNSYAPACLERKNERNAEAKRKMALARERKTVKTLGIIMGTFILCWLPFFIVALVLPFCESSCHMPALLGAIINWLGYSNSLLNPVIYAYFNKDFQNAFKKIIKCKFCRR
UniProt P14842, whole entry: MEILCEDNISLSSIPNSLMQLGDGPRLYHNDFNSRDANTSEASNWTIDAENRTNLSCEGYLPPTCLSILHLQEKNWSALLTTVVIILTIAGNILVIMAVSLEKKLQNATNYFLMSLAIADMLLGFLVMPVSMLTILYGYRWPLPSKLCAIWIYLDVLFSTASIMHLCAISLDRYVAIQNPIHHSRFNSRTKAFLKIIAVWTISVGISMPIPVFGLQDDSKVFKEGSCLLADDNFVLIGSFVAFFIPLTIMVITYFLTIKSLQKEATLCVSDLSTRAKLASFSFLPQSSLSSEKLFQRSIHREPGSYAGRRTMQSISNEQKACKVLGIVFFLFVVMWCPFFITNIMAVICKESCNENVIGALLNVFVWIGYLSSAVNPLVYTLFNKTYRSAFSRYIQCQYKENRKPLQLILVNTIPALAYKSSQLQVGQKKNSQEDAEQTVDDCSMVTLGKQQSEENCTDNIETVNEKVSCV

Tests used:
serotonin 1A receptor = serotonin 1A receptor (Rattus norvegicus, UniProt P19327); assay: Binding test on [3H] 8-hydroxy-dipropylaminotetralin, hippocampus receptor fraction
serotonin 2 receptor = serotonin 2 receptor (Rattus norvegicus, UniProt P14842); assay: Binding test on [3H] ketanserin, cerebral cortex receptor fraction; design: species or system SD rats

Row | SMILES | Ki (serotonin 1A receptor; read-out: 5HT1, 0.5 nM [3H] 8-OH-DPAT, room temperature 30 min, tested form: HCl) [nM] | Ki (serotonin 2 receptor; read-out: 5HT2, 0.3 nM [3H] ketanserin, 37° C. 15 min, tested form: HCl) [nM] | Ki (serotonin 1A receptor; read-out: 5HT1, 0.5 nM [3H] 8-OH-DPAT, room temperature 30 min, tested form: oxalate) [nM] | Ki (serotonin 2 receptor; read-out: 5HT2, 0.3 nM [3H] ketanserin, 37° C. 15 min, tested form: oxalate) [nM]
1 | CCN1CCN(c2nc(-c3ccc(OCCc4ccc(C)nc4)cc3)cc3ccccc23)CC1 | 23.3 | 18.7 |  | 
2 | CCN1CCN(c2nc(/C=C/c3ccc(N4CCOCC4)nc3)cc3ccccc23)CC1 [Example 200, 3-[(E)-2-[2-(4-Morpholinyl)Pyridin-5-Yl]Ethenyl]-1-(4-Ethylpiperazin-1-Yl)Isoquinoline Hydrochloride] |  |  | 21.1 | 31.8
